Data reported in ChEMBL document CHEMBL1140509, “Rynaxypyr: a new insecticidal anthranilic diamide that acts as a potent and selective ryanodine receptor activator” (Bioorg Med Chem Lett, 2007).

Columns and labels:
Assay type in all cases: cell-based
[1] = test system: PC-12; test: Selectivity for Heliothis virescens recombinant ryanodine receptor over rat ryanodine receptor in PC12 cells
[2] = test system: C2C12; test: Selectivity for Heliothis virescens recombinant ryanodine receptor over mouse ryanodine receptor in C2C12 cells
[3] = test system: C2C12; test: Selectivity for Drosophila melanogaster ryanodine receptor over mouse ryanodine receptor in C2C12 cells
[4] = test system: PC-12; test: Selectivity for Drosophila melanogaster ryanodine receptor over rat ryanodine receptor in PC12 cells

CNC(=O)c1cc(Cl)cc(C)c1NC(=O)c1cc(Br)nn1-c1ncccc1Cl [CHLORANTRANILIPROLE]
Selectivity ratio [1]: > 2000 | Selectivity ratio [2]: 300 | Selectivity ratio [3]: 300 | Selectivity ratio [4]: > 2000
